Our source for the GTP binding activity (percent of control) values is PubChem BioAssay AID758 (NMMLSC, 2007).

The list shows a part of the results, in another mix than the full data. The source made the active and inactive calls.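 The calls were made as follows: active = fluorescent GTP binding to Rab7 beads changed by at least 20 points from the 100% baseline, either direction, mostly lower; inconclusive = compound itself probably fluorescent, or too few beads counted; inactive = the rest.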

The test has as its system Rab7 GTPase wild type (dog), Bodipy-FL-GTP binding. As to the kind of experiment: modulators of GTP binding to Rab7, primary screen, biochemical, wildtype, multiplex bead flow cytometry (AID 758).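 Also: median green fluorescence of bound Bodipy-FL-GTP per Rab7 bead population.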 Conditions: GST-Rab7 beads, fluorescent GTP binding, at 10 µM, actives lie on both sides, untreated = 100%, excess cold GTP = 0%.
In the case of `O=P1(Nc2ncccn2)COc2ccccc2OC1`, the GTP binding activity (percent of control) is inactive: 99%.
Then `O=P1(Nc2ccc(Br)cn2)COc2ccccc2OC1`, with inactive: 94%.
The result for `Cc1ccc(OCC(=O)OC2CN3CCC2CC3)cc1` (stereo not given) reads inactive: 102%; that for `Cc1nn(-c2ccccc2)c2c1P(=O)(N1CCOCC1)N(C)C(c1ccccc1)=N2` (stereo not given), inactive: 100%.
The result for `CC1CCC(C(C)C)C(OP(=O)(Nc2ccccn2)c2ccccc2)C1` (stereo not given) reads inactive: 93%; that for `CN(C)C1(CNC(=O)c2ccc(S(C)(=O)=O)cc2)CCCCC1`, inactive: 101%; that for `CC(C)/C=N\N=C(\N)N[N+](=O)[O-]`, inactive: 97%.
`O=P1(Nc2ccccn2)COc2ccccc2OC1`: the GTP binding activity (percent of control) is inactive: 100%.
As for `Clc1n[nH]nc1-c1nn[nH][15n]1`, the GTP binding activity (percent of control) was inactive: 101%.
Then `Cc1ccc(NCCc2c([N+](=O)[O-])cc([N+](=O)[O-])cc2[N+](=O)[O-])cc1`, with inactive: 102%; and `COc1cc(C2NCCC3(OCCO3)C2(C)C)cc(OC)c1OC` (stereo not given), with inactive: 96%; and `CCOP(=O)(Nc1cccc2ccccc12)OCC`, with inactive: 101%.
Then `COc1cc(C(=O)NCC2(N3CCOCC3)CCCCC2)cc(Cl)c1OC(C)C`, with inactive: 100%; and `Cc1cccc(OCC(=O)OC2CN3CCC2CC3)c1` (stereo not given), with inactive: 103%; and `CCOP1(=S)c2c(C)nn(CCC#N)c2N=C(c2ccc(F)cc2)N1C` (stereo not given), with inactive: 96%.
The result for `O=[N+]([O-])c1ccc2c(c1)nnn2O` reads inactive: 102%; that for `CCOP1(=S)c2c(C)nn(CCC#N)c2N=C(c2ccccc2F)N1C` (stereo not given), inactive: 95%.
On to `O=P(Nc1nccs1)(c1ccccc1)c1nc2ccccc2s1` (stereo not given), for which the GTP binding activity (percent of control) was inactive: 98%.
Then `O=P(Nc1nccs1)(Oc1ccccc1)Oc1ccccc1`, with inactive: 94%.
As for `ClCCSc1nnc(-c2cccnc2)o1`, the GTP binding activity (percent of control) is inactive: 103%.
The result for `CCN(CC)C(=S)SC(NC=O)C(Cl)(Cl)Cl` (stereo not given) reads inactive: 94%; that for `CC(C)NC(=O)NP(=O)(Oc1ccccc1)Oc1ccccc1`, inactive: 102%; that for `O=[N+]([O-])c1cc([N+](=O)[O-])c(-c2ccn[nH]2)s1`, inactive: 104%.
Consider `Cc1ccc2nc3c(c(C)c2c1)CC(C(Cl)Cl)S3` (stereo not given), for which the GTP binding activity (percent of control) was inactive: 100%.
Then `COc1ccc(N/C(=N/P(=O)(N2CCOCC2)N2CCOCC2)N2CCOCC2)cc1`, with inactive: 101%; and `Cc1c2c(nc3ccccc13)SC(C(Cl)Cl)C2` (stereo not given), with inactive: 99%; and `Cc1cc(=O)[nH]c(N[N+](=O)[O-])n1`, with inactive: 103%.
Then `COc1ccc2nc(NP(=O)(c3ccccc3)c3ccccc3)sc2c1`, with inactive: 103%; and `CCC(C)N(CC(C)C)C(=S)SC(NC(C)=O)C(Cl)(Cl)Cl` (stereo not given), with inactive: 99%; and `COP1(=S)c2c(C)nn(CCC#N)c2N=C(c2ccc(F)cc2)N1C` (stereo not given), with inactive: 96%.
As to `O=C(COc1ccccc1)OC1CN2CCC1CC2` (stereo not given), the GTP binding activity (percent of control) was inactive: 105%.
Then `Cc1cc(SC(NC=O)C(Cl)(Cl)Cl)ncn1` (stereo not given), with inactive: 107%; and `O=P(Nc1ccccn1)(c1cccc2ccccc12)c1cccc2ccccc12`, with inactive: 96%; and `Cc1cc(SC(NC(=O)c2ccccc2)C(Cl)(Cl)Cl)nc(C(C)C)n1` (stereo not given), with inactive: 102%.
For `O=[N+]([O-])c1ncn(CCn2ncnc2[N+](=O)[O-])n1`, the GTP binding activity (percent of control) was inactive: 95%.
The result for `CCN(/C(=N/P(=O)(N1CCOCC1)N1CCOCC1)N1CCOCC1)c1ccc(OC)cc1` reads inactive: 99%; that for `CC1CCN(C(=O)Oc2c(Cl)cc(Cl)c3cccnc23)CC1`, inactive: 100%; that for `CN(C)C(=O)OCCc1n(C)cc[n+]1C`, inactive: 103%.
In the case of `COc1ccc(C2=NCC(CBr)S2)cc1` (stereo not given), the GTP binding activity (percent of control) is inactive: 102%.
Then `Cc1ccc(NP(=O)(Oc2ccccc2)Oc2ccccc2)nc1`, with inactive: 103%; and `O=[N+]([O-])c1cc([N+](=O)[O-])c(CCNc2ccccc2)c([N+](=O)[O-])c1`, with inactive: 102%.
In the case of `CCc1nc2c(n1)c1c(non1O)c1c2no[n+]1[O-]`, the GTP binding activity (percent of control) was inactive: 96%.
The result for `CC(=O)N1C2C3N(C(C)=O)C1C1N(C(C)=O)C(C(N1C(C)=O)N3C(C)=O)N2C(C)=O` reads inactive: 94%; that for `O=[N+]([O-])c1cccc2n[nH]nc12`, inactive: 101%; that for `Oc1ccccc1CNc1ccccn1`, inactive: 100%.
The result for `Cc1c2non([O-])c-2c(C)[n+](=O)[n+]1[O-]` reads inactive: 100%.
The result for `O=C(NC(Sc1ccncn1)C(Cl)(Cl)Cl)c1ccccc1` (stereo not given) reads inactive: 98%.
For `CC(C)CC(=O)NC(Sc1ccc(Cl)cc1)C(Cl)(Cl)Cl` (stereo not given), the GTP binding activity (percent of control) was inactive: 103%.
As for `Cc1ccc(N/C(=N/P(=O)(N2CCOCC2)N2CCOCC2)N2CCOCC2)cc1`, the GTP binding activity (percent of control) was inactive: 94%.
The result for `NC(=O)c1cc([N+](=O)[O-])cc([N+](=O)[O-])c1N` reads inactive: 97%; that for `Clc1ccc(Cl)c(NC2=NCC(CBr)S2)c1` (stereo not given), inactive: 96%; that for `CN1CCCC(OC(=O)C(c2ccccc2)c2ccccc2)C1` (stereo not given), inactive: 102%.
Then `CCN(N=Nc1nonc1N)c1nonc1N`, with inactive: 95%.
Then `CCOP(=O)(Nc1ccccc1)OCC`, with inactive: 105%.
Regarding `Cc1cc(SC(NC(=O)c2ccc(F)cc2)C(Cl)(Cl)Cl)ncn1` (stereo not given), the GTP binding activity (percent of control) was inactive: 98%.
On to `CCC(=O)N1C2C3N(C(=O)CC)C1C1N(C(=O)CC)C(C(N1C(=O)CC)N3C(=O)CC)N2C(=O)CC`, for which the GTP binding activity (percent of control) is inactive: 98%.
The result for `COC(=O)c1cc2c(s1)N=C(c1ccccc1)N(C)P2(=O)N1CCOCC1` (stereo not given) reads inactive: 94%.
The result for `CC(=O)NC(SC(=S)N(CC(C)C)CC(C)C)C(Cl)(Cl)Cl` (stereo not given) reads inactive: 97%; that for `Cc1ccc(OP(=O)(Nc2ccccn2)Oc2ccc(C)cc2)cc1`, inactive: 92%; that for `O=c1c2cc([N+](=O)[O-])ccc2[nH]c2c([N+](=O)[O-])cc([N+](=O)[O-])cc12`, inactive: 98%.
The result for `c1ccc(-c2nn[nH]n2)c(-c2nn[nH]n2)c1` reads inactive: 95%.
Take `CCOC(=O)NC(Sc1ccccc1)C(Cl)(Cl)Cl` (stereo not given): the GTP binding activity (percent of control) was inactive: 99%.
The result for `O=C(NC1CCS(=O)(=O)C1)NP(=S)(Oc1ccccc1)Oc1ccccc1` (stereo not given) reads inactive: 96%; that for `CCNC(=S)/N=C(\N)N[N+](=O)[O-]`, inactive: 97%; that for `CC(=O)Nc1ccc(Oc2c([N+](=O)[O-])cc([N+](=O)[O-])cc2[N+](=O)[O-])cc1`, inactive: 91%.
Then `O=P1(Nc2nc3ccc(Cl)cc3s2)COc2ccccc2O1` (stereo not given), with inactive: 96%; and `CCOc1ccc(C2=NCC(CBr)S2)cc1` (stereo not given), with inactive: 95%; and `CC(C)(C)C(=O)NC(Sc1ccccc1)C(Cl)(Cl)Cl` (stereo not given), with inactive: 96%.
The result for `O=P(Nc1nccs1)(c1ccccc1)c1ccccc1` reads inactive: 99%; that for `CC(C)C(=O)NC(Sc1ccccc1)C(Cl)(Cl)Cl` (stereo not given), inactive: 104%; that for `c1nnnn1CCn1cnnn1`, inactive: 101%.
Turning to `CC(=O)NC(SC(=S)N(C)C)C(Cl)(Cl)Cl` (stereo not given), the GTP binding activity (percent of control) was inactive: 99%.
With `O=C(OC1CN2CCC1CC2)c1cccc(Cl)c1` (stereo not given), the GTP binding activity (percent of control) is inactive: 104%.
The result for `C(Cc1nn[nH]n1)Cc1nn[nH]n1` reads inactive: 100%; that for `O=P(Nc1ccccn1)(c1ccc(Br)cc1)c1ccc(Br)cc1`, inactive: 96%.
